Assay results taken from article PMC9898996 (Bioorganic & medicinal chemistry, 2022).

Amino acid sequences for entries named in this document (tags omitted).
UniProt P14416, whole entry: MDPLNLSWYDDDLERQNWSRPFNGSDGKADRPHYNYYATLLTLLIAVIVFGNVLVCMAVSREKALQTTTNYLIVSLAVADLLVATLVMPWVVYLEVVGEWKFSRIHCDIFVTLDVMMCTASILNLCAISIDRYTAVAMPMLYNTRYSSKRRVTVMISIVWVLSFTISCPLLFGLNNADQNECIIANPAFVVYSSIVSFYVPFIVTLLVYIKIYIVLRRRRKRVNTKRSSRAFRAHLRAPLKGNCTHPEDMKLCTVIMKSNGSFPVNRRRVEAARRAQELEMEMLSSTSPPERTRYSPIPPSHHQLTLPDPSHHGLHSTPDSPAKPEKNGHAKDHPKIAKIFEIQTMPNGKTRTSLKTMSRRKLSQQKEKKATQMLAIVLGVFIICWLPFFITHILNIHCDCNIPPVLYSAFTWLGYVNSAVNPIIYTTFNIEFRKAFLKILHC

Target: human D2 receptor (Homo sapiens, UniProt P14416)

CCCN(CCC)C1CCc2c(O)cccc2C1 (single isomer, unassigned; (-)) [(−)-5-OH-DPAT, 5-OH-DPAT]
EC50: 0.041 ± 0.006 µM
